Earlier results on one compound are cited in US6004969A, “Transdermal delivery of buprenorphine preparations” (National Science Council, priority 1997, dated 1999).

The subject of one data set is mu-receptor. The settings on record: words.
For a further data set, the system named is kappa receptor. The settings on record: words.

The structures appear in SMILES notation.

For `CO[C@]12CC[C@@]3(C[C@@H]1[C@](C)(O)C(C)(C)C)[C@H]1Cc4ccc(O)c5c4[C@@]3(CCN1CC1CC1)[C@H]2O5` [Buprenorphine, 21-cyclo-propylmethyl-7-α-[(S)-1-hydroxy-1,2,2-trimethylpropyl]-6,14-endoethano-6,7,8,14-tetrahydroripavine], the mu-receptor activity result in the data set on mu-receptor is listed as “mu-receptor agonist”. Besides, the kappa receptor activity result in the data set on kappa receptor was “kappa receptor antagonist”.
